Key:
[1] = target: human PPAR α (Homo sapiens, UniProt Q07869); test: In vitro PPAR alpha transactivation assay (GAL4-DBD-PPAR-LBD luciferase reporter in HEK293 cells); assay type: cell-based
[2] = target: human PPAR γ (Homo sapiens, UniProt P37231); test: In vitro PPAR gamma transactivation assay (GAL4-DBD-PPAR-LBD luciferase reporter in HEK293 cells); assay type: cell-based

By UniProt entry, the sequences of proteins in these tests, tags left out. Residues count along the entry.
UniProt Q07869, 167-468 limits assumed: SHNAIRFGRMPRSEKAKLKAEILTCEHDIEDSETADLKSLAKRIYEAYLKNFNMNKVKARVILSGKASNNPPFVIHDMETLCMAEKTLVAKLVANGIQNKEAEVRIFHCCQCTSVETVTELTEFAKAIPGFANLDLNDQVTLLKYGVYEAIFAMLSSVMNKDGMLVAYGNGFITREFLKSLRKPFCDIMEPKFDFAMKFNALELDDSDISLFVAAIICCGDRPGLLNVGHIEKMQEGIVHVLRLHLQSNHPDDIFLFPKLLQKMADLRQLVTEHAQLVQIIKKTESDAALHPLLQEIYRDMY
UniProt P37231, 193-505 limits assumed: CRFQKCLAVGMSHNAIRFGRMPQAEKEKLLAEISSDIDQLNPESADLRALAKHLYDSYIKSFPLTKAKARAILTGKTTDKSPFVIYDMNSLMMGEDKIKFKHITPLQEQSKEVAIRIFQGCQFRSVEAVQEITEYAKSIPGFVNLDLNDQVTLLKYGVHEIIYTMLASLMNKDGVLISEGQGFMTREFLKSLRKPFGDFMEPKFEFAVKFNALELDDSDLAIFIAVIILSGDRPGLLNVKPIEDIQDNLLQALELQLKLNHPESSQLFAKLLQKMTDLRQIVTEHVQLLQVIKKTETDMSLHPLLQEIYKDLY

CCO[C@@H](Cc1ccc(OC/C=C(\C)C#Cc2ccccc2)cc1)C(=O)O
In vitro activation PPAR α % max ([1]; fold activation relative to maximum activation obtained with Wy14643 (approx. 20 fold corresponded to 100%)): 217%
EC50 ([1]; read-out: In vitro activation PPAR α EC50, HEK293 cells, 24 h with compound, five concentrations 0.01 to 30 μM, means of at least three experiments): 200 nM
In vitro activation PPAR γ % max ([2]; fold activation relative to maximum activation obtained with rosiglitazone (approx. […] fold corresponded to 100%)): 108%
EC50 ([2]; read-out: In vitro activation PPAR γ EC50, HEK293 cells, 24 h with compound, five concentrations 0.01 to 30 μM, means of at least three experiments): 700 nM

From patent US7202213B2 (Novo Nordisk A/S, priority 2000, dated 2007)
